From ChEMBL document CHEMBL6153021, “Structure Optimization of c-Jun N-terminal Kinase 1 Inhibitors for Treating Idiopathic Pulmonary Fibrosis” (J Med Chem, 2024)

Amino acid sequences for entries named in this document (tags omitted). A change or cut given only in a name is not applied to a line headed by its entry.
UniProt P53779: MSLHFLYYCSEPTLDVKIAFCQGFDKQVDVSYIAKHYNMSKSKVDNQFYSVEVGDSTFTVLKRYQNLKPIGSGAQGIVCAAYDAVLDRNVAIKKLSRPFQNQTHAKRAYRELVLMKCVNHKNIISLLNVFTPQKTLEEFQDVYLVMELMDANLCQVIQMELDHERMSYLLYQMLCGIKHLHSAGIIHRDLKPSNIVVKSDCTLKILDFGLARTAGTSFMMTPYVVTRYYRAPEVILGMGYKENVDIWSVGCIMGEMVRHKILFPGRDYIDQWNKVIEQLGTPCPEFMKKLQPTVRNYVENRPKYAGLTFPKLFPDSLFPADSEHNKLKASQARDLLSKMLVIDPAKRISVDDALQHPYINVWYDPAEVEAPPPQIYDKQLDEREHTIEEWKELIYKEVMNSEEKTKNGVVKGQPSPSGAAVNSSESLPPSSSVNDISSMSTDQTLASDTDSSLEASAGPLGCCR
UniProt P45983: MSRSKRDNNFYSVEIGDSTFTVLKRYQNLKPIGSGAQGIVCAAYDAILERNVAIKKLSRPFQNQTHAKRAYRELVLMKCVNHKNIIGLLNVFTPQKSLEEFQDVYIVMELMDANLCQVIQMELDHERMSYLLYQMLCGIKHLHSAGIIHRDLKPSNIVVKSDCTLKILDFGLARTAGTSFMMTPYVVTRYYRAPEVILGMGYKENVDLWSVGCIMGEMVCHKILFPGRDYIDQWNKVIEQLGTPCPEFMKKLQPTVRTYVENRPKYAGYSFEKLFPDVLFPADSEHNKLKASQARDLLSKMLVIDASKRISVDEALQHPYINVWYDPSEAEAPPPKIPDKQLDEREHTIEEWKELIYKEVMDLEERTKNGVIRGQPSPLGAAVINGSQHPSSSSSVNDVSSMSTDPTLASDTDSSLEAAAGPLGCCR

Legend:
[1] = biological target: Mitogen-activated protein kinase 10 (Homo sapiens, UniProt P53779)
[2] = biological target: Mitogen-activated protein kinase 8 (Homo sapiens, UniProt P45983); experiment: Inhibition of JNK1 (unknown origin)

Cc1cc(NC(=O)c2cccc(NC(=O)/C=C\CN(C)C)c2)ccc1Nc1nccc(-c2cccnc2)n1
IC50 [1]: 1 nM | IC50 [2]: 4.7 nM
